Biological target: T1, human APLNR (Homo sapiens, UniProt P35414)
T1 sequence (P35414 1-380): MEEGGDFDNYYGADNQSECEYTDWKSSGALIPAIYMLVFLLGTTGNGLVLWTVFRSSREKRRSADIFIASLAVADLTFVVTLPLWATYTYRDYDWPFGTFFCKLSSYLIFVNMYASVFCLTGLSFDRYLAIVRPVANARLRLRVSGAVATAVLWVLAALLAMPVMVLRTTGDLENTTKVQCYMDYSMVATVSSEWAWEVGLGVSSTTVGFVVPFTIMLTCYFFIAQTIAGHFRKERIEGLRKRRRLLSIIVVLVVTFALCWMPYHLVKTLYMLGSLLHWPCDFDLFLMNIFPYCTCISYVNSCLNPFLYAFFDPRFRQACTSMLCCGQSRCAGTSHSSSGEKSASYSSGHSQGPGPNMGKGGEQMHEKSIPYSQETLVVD
Test: cell-based
Description: APLNR activation was determined by β-arrestin recruitment as measured by the ProLink […] complementation technology (93-0001, DiscoveRx). In brief, CHO cells stably expressing APLNR were seeded and incubated overnight at 37° C. The compounds were tested in duplicate and diluted to obtain a 10-point curve with 3-fold serial dilutions (<1% DMSO). The compounds and cells were incubated for 3 hours at 37° C. After the incubation period the detection reagents were added and the plate chemiluminescent signal was measured after 30 min at RT.

Work on `COc1cccc(OC)c1-n1c(NS(=O)(=O)[C@@H](C)[C@H](C)c2ncc(C)cn2)nnc1-c1cncc(C)c1` [BGE-105, (2S,3R)—N-(4-(2,6-dimethoxyphenyl)-5-(5-methyl-3-pyridinyl)-4H-1,2,4-triazol-3-yl)-3-(5-methyl-2-pyrimidinyl)-2-butanesulfonamide] yielded an EC50 of 0.1 nM.
